Bounds are passed on as bounds.

Chains of the proteins cited; added tags and fusions are not shown. Residues count along the entry.
UniProt P69905, 2-142, chain 1 of 2: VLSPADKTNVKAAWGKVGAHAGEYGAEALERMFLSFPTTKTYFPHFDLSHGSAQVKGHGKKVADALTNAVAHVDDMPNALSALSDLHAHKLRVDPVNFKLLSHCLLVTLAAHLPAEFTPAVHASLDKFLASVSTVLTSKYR

Assay [1] concerns the target human hemoglobin (human) (UniProt P69905). As to the kind of experiment: cell-based or functional assay.
The target is the same in assay [2]. As to the kind of experiment: OC-Hemodia Auto III immunoassay, Hb 6.2 pmol/mL, Hpt 6.2 pmol/mL (1 Unit), no stool, initial value.
Assay [3] shares this target. As to the kind of experiment: OC-Hemodia Auto III immunoassay, Hb 6.2 pmol/mL, Hpt 3.1 pmol/mL (0.5 Unit), no stool, initial value.
For assay [4] the target is unchanged. As to the kind of experiment: OC-Hemodia Auto III immunoassay, Hb 9.3 pmol/mL, Hpt 9.3 pmol/mL (1 Unit), 0.5% feces, initial value.
The target is the same in assay [5]. In words: OC-Hemodia Auto III immunoassay, Hb 6.2 pmol/mL, Hpt 1.55 pmol/mL (0.25 Unit), no stool, initial value.
Assay [6] has the same target. As to the kind of experiment: OC-Hemodia Auto III immunoassay, Hb 9.3 pmol/mL, Hpt 4.65 pmol/mL (0.5 Unit), 0.5% feces, initial value.
Assay [7] has the same target. As to the kind of experiment: OC-Hemodia Auto III immunoassay, Hb 6.2 pmol/mL, Hpt 0.775 pmol/mL (0.125 Unit), no stool, initial value.
The target is the same in assay [8]. As to the kind of experiment: OC-Hemodia Auto III immunoassay, Hb 9.3 pmol/mL, Hpt 2.325 pmol/mL (0.25 Unit), 0.5% feces, initial value.
Assay [9] shares this target. In words: OC-Hemodia Auto III immunoassay, Hb 6.2 pmol/mL, Hpt 12.4 pmol/mL (2 Unit), no stool, initial value.

As to Equine dHpt (PNGase), in the assay with human hemoglobin (human) [1], the Residual Hb ratio (%), 37°C 7 days, Hpt 0.775 pmol/mL (0.125 Unit), no stool was determined as 49%; the Residual Hb ratio (%), 37°C 7 days, Hpt 1.55 pmol/mL (0.25 Unit), no stool turned out to be 56%; the Residual Hb ratio (%), 37°C 7 days, Hpt 2.325 pmol/mL (0.25 Unit), 0.5% feces was determined as 21%; the Residual Hb ratio (%), 37°C 7 days, Hpt 3.1 pmol/mL (0.5 Unit), no stool was determined as 71%. In the assay with human hemoglobin (human) [1], the Residual Hb ratio (%), 37°C 7 days, Hpt 4.65 pmol/mL (0.5 Unit), 0.5% feces amounted to 36%; the Residual Hb ratio (%), 37°C 7 days, Hpt 6.2 pmol/mL (1 Unit), no stool was 96%; the Residual Hb ratio (%), 37°C 7 days, Hpt 9.3 pmol/mL (1 Unit), 0.5% feces came out at 68%; the Residual Hb ratio (%), 37°C 14 days, Hpt 0.775 pmol/mL (0.125 Unit), no stool was 28%. Besides, in the assay with human hemoglobin (human) [1], the Residual Hb ratio (%), 37°C 14 days, Hpt 1.55 pmol/mL (0.25 Unit), no stool came to 41%; the Residual Hb ratio (%), 37°C 14 days, Hpt 2.325 pmol/mL (0.25 Unit), 0.5% feces came to 17%; the Residual Hb ratio (%), 37°C 14 days, Hpt 3.1 pmol/mL (0.5 Unit), no stool was found to be 67%; the Residual Hb ratio (%), 37°C 14 days, Hpt 4.65 pmol/mL (0.5 Unit), 0.5% feces worked out at 32%. Also, in the assay with human hemoglobin (human) [1], the Residual Hb ratio (%), 37°C 14 days, Hpt 6.2 pmol/mL (1 Unit), no stool came out at 101%; the Residual Hb ratio (%), 37°C 14 days, Hpt 9.3 pmol/mL (1 Unit), 0.5% feces worked out at 66%; the residual Hb ratio, 1 Unit of Hpt, 37°C 7 days, no stool is over 70%. The Ratio to no Hpt addition (%) with human hemoglobin (human) [2] worked out at 68%. The Ratio to no Hpt addition (%) with human hemoglobin (human) [3] was 88%. The Ratio to no Hpt addition (%) with human hemoglobin (human) [4] came out at 92%. Besides, the Ratio to no Hpt addition (%) in the assay with human hemoglobin (human) [5] was determined as 92%. The Ratio to no Hpt addition (%) with human hemoglobin (human) [6] worked out at 97%. The Ratio to no Hpt addition (%) with human hemoglobin (human) [7] is 97%. Further, the Ratio to no Hpt addition (%) in the assay with human hemoglobin (human) [8] amounted to 98%.

For “Human dHpt (ENGase) (from UniProt P00738 19-406)”, in the assay with human hemoglobin (human) [1], the Residual Hb ratio (%), 37°C 7 days, Hpt 0.775 pmol/mL (0.125 Unit), no stool turned out to be 48%; the Residual Hb ratio (%), 37°C 7 days, Hpt 1.55 pmol/mL (0.25 Unit), no stool was determined as 51%; the Residual Hb ratio (%), 37°C 7 days, Hpt 2.325 pmol/mL (0.25 Unit), 0.5% feces amounted to 23%; the Residual Hb ratio (%), 37°C 7 days, Hpt 3.1 pmol/mL (0.5 Unit), no stool turned out to be 57%. For the same substance, in the assay with human hemoglobin (human) [1], the Residual Hb ratio (%), 37°C 7 days, Hpt 4.65 pmol/mL (0.5 Unit), 0.5% feces came to 41%; the Residual Hb ratio (%), 37°C 7 days, Hpt 6.2 pmol/mL (1 Unit), no stool amounted to 80%; the Residual Hb ratio (%), 37°C 7 days, Hpt 9.3 pmol/mL (1 Unit), 0.5% feces turned out to be 84%; the Residual Hb ratio (%), 37°C 7 days, Hpt 12.4 pmol/mL (2 Unit), no stool was found to be 101%. In addition, in the assay with human hemoglobin (human) [1], the Residual Hb ratio (%), 37°C 14 days, Hpt 0.775 pmol/mL (0.125 Unit), no stool was 22%; the Residual Hb ratio (%), 37°C 14 days, Hpt 1.55 pmol/mL (0.25 Unit), no stool stood at 31%; the Residual Hb ratio (%), 37°C 14 days, Hpt 2.325 pmol/mL (0.25 Unit), 0.5% feces came out at 19%; the Residual Hb ratio (%), 37°C 14 days, Hpt 3.1 pmol/mL (0.5 Unit), no stool amounted to 44%. Further, in the assay with human hemoglobin (human) [1], the Residual Hb ratio (%), 37°C 14 days, Hpt 4.65 pmol/mL (0.5 Unit), 0.5% feces came to 40%; the Residual Hb ratio (%), 37°C 14 days, Hpt 6.2 pmol/mL (1 Unit), no stool turned out to be 83%; the Residual Hb ratio (%), 37°C 14 days, Hpt 9.3 pmol/mL (1 Unit), 0.5% feces came out at 84%; the Residual Hb ratio (%), 37°C 14 days, Hpt 12.4 pmol/mL (2 Unit), no stool was 100%. Moreover, the residual Hb ratio, 1 Unit of Hpt, 37°C 7 days, no stool with human hemoglobin (human) [1] was over 70%. Besides, the Ratio to no Hpt addition (%) with human hemoglobin (human) [2] was 87%. The Ratio to no Hpt addition (%) with human hemoglobin (human) [9] was found to be 65%. In the assay with human hemoglobin (human) [3], the Ratio to no Hpt addition (%) came to 93%. In addition, the Ratio to no Hpt addition (%) with human hemoglobin (human) [4] was found to be 86%. The Ratio to no Hpt addition (%) in the assay with human hemoglobin (human) [5] amounted to 98%. In the assay with human hemoglobin (human) [6], the Ratio to no Hpt addition (%) turned out to be 94%. In addition, in the assay with human hemoglobin (human) [7], the Ratio to no Hpt addition (%) came to 98%. Besides, the Ratio to no Hpt addition (%) in the assay with human hemoglobin (human) [8] turned out to be 98%.

For “Human dHpt (PNGase) (from UniProt P00738 19-406)”, in the assay with human hemoglobin (human) [1], the Residual Hb ratio (%), 37°C 7 days, Hpt 0.775 pmol/mL (0.125 Unit), no stool turned out to be 48%; the Residual Hb ratio (%), 37°C 7 days, Hpt 1.55 pmol/mL (0.25 Unit), no stool came out at 55%; the Residual Hb ratio (%), 37°C 7 days, Hpt 2.325 pmol/mL (0.25 Unit), 0.5% feces turned out to be 23%; the Residual Hb ratio (%), 37°C 7 days, Hpt 3.1 pmol/mL (0.5 Unit), no stool is 62%. Moreover, in the assay with human hemoglobin (human) [1], the Residual Hb ratio (%), 37°C 7 days, Hpt 4.65 pmol/mL (0.5 Unit), 0.5% feces turned out to be 43%; the Residual Hb ratio (%), 37°C 7 days, Hpt 6.2 pmol/mL (1 Unit), no stool came out at 94%; the Residual Hb ratio (%), 37°C 7 days, Hpt 9.3 pmol/mL (1 Unit), 0.5% feces was determined as 82%; the Residual Hb ratio (%), 37°C 7 days, Hpt 12.4 pmol/mL (2 Unit), no stool turned out to be 100%. For the same substance, in the assay with human hemoglobin (human) [1], the Residual Hb ratio (%), 37°C 14 days, Hpt 0.775 pmol/mL (0.125 Unit), no stool came out at 23%; the Residual Hb ratio (%), 37°C 14 days, Hpt 1.55 pmol/mL (0.25 Unit), no stool was 35%; the Residual Hb ratio (%), 37°C 14 days, Hpt 2.325 pmol/mL (0.25 Unit), 0.5% feces is 18%; the Residual Hb ratio (%), 37°C 14 days, Hpt 3.1 pmol/mL (0.5 Unit), no stool was determined as 50%. In addition, in the assay with human hemoglobin (human) [1], the Residual Hb ratio (%), 37°C 14 days, Hpt 4.65 pmol/mL (0.5 Unit), 0.5% feces amounted to 40%; the Residual Hb ratio (%), 37°C 14 days, Hpt 6.2 pmol/mL (1 Unit), no stool was 95%; the Residual Hb ratio (%), 37°C 14 days, Hpt 9.3 pmol/mL (1 Unit), 0.5% feces is 80%; the Residual Hb ratio (%), 37°C 14 days, Hpt 12.4 pmol/mL (2 Unit), no stool is 101%. Also, the residual Hb ratio, 1 Unit of Hpt, 37°C 7 days, no stool with human hemoglobin (human) [1] is over 70%. Besides, the Ratio to no Hpt addition (%) with human hemoglobin (human) [2] was 82%. The Ratio to no Hpt addition (%) with human hemoglobin (human) [9] came out at 47%. For the same substance, the Ratio to no Hpt addition (%) with human hemoglobin (human) [3] is 93%. Besides, the Ratio to no Hpt addition (%) with human hemoglobin (human) [4] is 87%. The Ratio to no Hpt addition (%) with human hemoglobin (human) [5] stood at 94%. The Ratio to no Hpt addition (%) with human hemoglobin (human) [6] turned out to be 93%. Besides, the Ratio to no Hpt addition (%) with human hemoglobin (human) [7] came to 99%. Further, in the assay with human hemoglobin (human) [8], the Ratio to no Hpt addition (%) was found to be 99%.

Values taken from patent EP4675276A1.
